# Cyclic peptide permeability, from CycPeptMPDB

Data: CycPeptMPDB; original report Townsend et al. 2020, doi:10.26434/chemrxiv.13335941.v1.

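Lipid, pH, incubation time, direction and concentration are not recorded in the data file. The list need not hold all peptides of the study. Peptides that the database sets to -10, its floor, are left out.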

PAMPA measures passive passage through an artificial lipid membrane.
Permeability is in 10^-6 cm/s, converted from the database's log10 values; higher is more permeable.

For CCCN1CC(=O)N[C@H](CC(C)C)C(=O)N[C@H](CC(C)C)C(=O)N2CCC[C@@H]2C(=O)N(Cc2ccccc2)CC(=O)N[C@@H](Cc2ccccc2)C(=O)N2CCC[C@H]2C1=O the data give PAMPA 2.7 × 10^-6 cm/s. CC(C)C[C@H]1C(=O)N[C@@H](Cc2ccccc2)C(=O)N2CCC[C@@H]2C(=O)N(C)[C@H](C)C(=O)N(Cc2ccccc2)CC(=O)N[C@@H](Cc2ccccc2)CC(=O)N2CCC[C@@H]2C(=O)N1C has PAMPA 0.4 × 10^-6 cm/s. For CC(C)C[C@@H]1NC(=O)[C@H](CC(C)C)N(C)C(=O)[C@H](C)N(C)C(=O)[C@H]2CCCN2C(=O)[C@H](Cc2ccccc2)NC(=O)CN(Cc2ccccc2)C(=O)[C@H]2CCCN2C1=O the data give PAMPA 4.7 × 10^-6 cm/s. Listed for CCCN1CC(=O)N[C@H](CC(C)C)C(=O)N[C@H](CC(C)C)C(=O)N2CCC[C@@H]2C(=O)N(C)[C@H](CC(C)C)C(=O)N[C@@H](Cc2ccccc2)C(=O)N2CCC[C@@H]2C1=O: PAMPA 2.8 × 10^-6 cm/s. CC(C)C[C@@H]1NC(=O)[C@@H](C)N(C)C(=O)[C@H](Cc2ccccc2)NC(=O)CN(Cc2ccccc2)C(=O)[C@@H]2CCCN2C(=O)[C@H](CC(C)C)NC1=O is reported with PAMPA 1.7 × 10^-6 cm/s. CC(C)C[C@@H]1NC(=O)[C@@H]2CCCN2C(=O)[C@@H](CC(C)C)N(C)C(=O)[C@@H](CC(C)C)NC(=O)[C@@H](C)NC(=O)[C@H](Cc2ccccc2)NC1=O has PAMPA 2.1 × 10^-6 cm/s. The entry for CC(C)C[C@@H]1NC(=O)[C@H](C)N(C)C(=O)[C@@H]2CCCN2C(=O)[C@H](Cc2ccccc2)NC(=O)[C@@H](CC(C)C)N(C)C(=O)[C@@H]2CCCN2C(=O)CN(Cc2ccccc2)C1=O lists PAMPA 0.91 × 10^-6 cm/s.

CC(C)C[C@H]1NC(=O)C[C@H](Cc2ccccc2)NC(=O)[C@H](Cc2ccccc2)NC(=O)[C@@H](CC(C)C)NC(=O)[C@H]2CCCN2C(=O)C[C@H](Cc2ccccc2)NC1=O has PAMPA 5 × 10^-6 cm/s. CC(C)C[C@@H]1C(=O)N[C@@H](Cc2ccccc2)C(=O)N2CCC[C@@H]2C(=O)N[C@H](C)C(=O)N(C)[C@H](CC(C)C)C(=O)N[C@H](CC(C)C)C(=O)N2CCC[C@@H]2C(=O)N1C has PAMPA 1.9 × 10^-6 cm/s. The entry for CC(C)C[C@@H]1NC(=O)[C@H](C)N(C)C(=O)[C@H]2CCCN2C(=O)[C@H](Cc2ccccc2)NC(=O)CN(Cc2ccccc2)C(=O)[C@H]2CCCN2C(=O)CN(Cc2ccccc2)C1=O lists PAMPA 3.7 × 10^-6 cm/s. Listed for CC(C)C[C@@H]1NC(=O)[C@@H]2CCCN2C(=O)CN(Cc2ccccc2)C(=O)[C@@H](CC(C)C)N(C)C(=O)[C@@H](C)N(C)C(=O)[C@@H]2CCCN2C(=O)[C@H](Cc2ccccc2)NC1=O: PAMPA 0.19 × 10^-6 cm/s. CCCN1CC(=O)N(C)[C@@H](CC(C)C)C(=O)N(C)[C@H](CC(C)C)C(=O)N2CCC[C@@H]2C(=O)N[C@@H](CC(C)C)C(=O)N[C@@H](Cc2ccccc2)C(=O)N2CCC[C@@H]2C1=O has PAMPA 1.3 × 10^-6 cm/s. The entry for CC(C)C[C@@H]1NC(=O)[C@H](C)N(C)C(=O)[C@H](Cc2ccccc2)NC(=O)[C@H](CC(C)C)NC(=O)[C@@H]2CCCN2C(=O)C[C@H](Cc2ccccc2)NC1=O lists PAMPA 0.83 × 10^-6 cm/s. CC(C)C[C@@H]1NC(=O)[C@@H](CC(C)C)N(C)C(=O)C[C@H](Cc2ccccc2)NC(=O)[C@@H]2CCCN2C(=O)[C@H](Cc2ccccc2)NC(=O)[C@@H](CC(C)C)N(C)C(=O)[C@@H]2CCCN2C1=O is reported with PAMPA 5 × 10^-6 cm/s.

The entry for CCCN1CC(=O)N(C)[C@H](CC(C)C)C(=O)N[C@H](CC(C)C)C(=O)N2CCC[C@H]2C(=O)N[C@H](CC(C)C)C(=O)N[C@@H](Cc2ccccc2)C(=O)N2CCC[C@@H]2C1=O lists PAMPA 0.39 × 10^-6 cm/s. Listed for CC(C)C[C@H]1C(=O)N(C)[C@@H](CC(C)C)C(=O)N2CCC[C@H]2C(=O)N(C)[C@@H](CC(C)C)C(=O)N[C@@H](Cc2ccccc2)C(=O)N2CCC[C@H]2C(=O)N[C@@H](Cc2ccccc2)CC(=O)N1C: PAMPA 3.8 × 10^-6 cm/s. Listed for CC(C)C[C@@H]1C(=O)N2CCC[C@H]2C(=O)N[C@H](CC(C)C)C(=O)N[C@@H](Cc2ccccc2)C(=O)N[C@@H](Cc2ccccc2)CC(=O)N[C@H](CC(C)C)C(=O)N1C: PAMPA 5.5 × 10^-6 cm/s. The entry for CC(C)C[C@H]1NC(=O)[C@H](C)N(C)C(=O)[C@H](Cc2ccccc2)NC(=O)CN(Cc2ccccc2)C(=O)[C@H]2CCCN2C(=O)CN(Cc2ccccc2)C1=O lists PAMPA 1.9 × 10^-6 cm/s.